Measurements as given in patent US11219645B2, “Tumor infiltrating lymphocytes for treatment of cancer” (Duke University, priority 2015, dated 2022).

Tested on: TILs from human lung tumors
Assay: In vitro expansion of human TILs cultured with IL-2 and/or IL-10
Type: cell-based
Conditions: IL-2 alone, 6,000 U/mL rIL-2; FIG. 5A
Experimental: TILs were isolated and cultured in the presence of 6,000 U/mL rIL-2, 100 U/mL rIL-10, or 6,000 U/mL rIL-2 plus 100 U/mL rIL-10. The numbers of live TILs counted are shown (y-axis). […] The expanded TILs in FIG. 5A were activated by anti-CD3/CD28 antibodies for 24 hours and tested for their ability to kill autologous primary tumor cells at an Effector:Target ratio of 20:1. The killing activity was measured at 15-minute intervals by Impedance assay. FIGS. 5C-D show IFNγ and TNFα expression in CD8+ TILs expanded in vitro. TILs from lung cancers were expanded in complete culture medium with 6,000 U/mL rIL-2 alone or combined with 100 U/mL rIL-10 for 20 days. IFNγ and TNFα expression in CD8+ TILs was analyzed by flow cytometry. Results shown in FIGS. 5A-D are representative of 3 to 6 patients. […] FIGS. 5F-J show mRNA expression of different pathways as indicated in IL-10/IL-2—treated human CD8+ TILs. Plotted are relative expression levels of mRNAs compared with those from IL-2-treated cells for each indicated gene based on gene chip data. Shown are the mean±SEM. Significance was determined by ANOVA in FIGS. 5F-J (*, P≤0.05; **, P≤0.01).
Human TILs Culture: Tumors were sliced with a sharp scalpel into small pieces (approximately 2 mm on each side). […]

IL-2: interleukin-2, recombinant cytokine used to expand TILs
expansion of TILs: started to expand and enter logarithmic growth phase after 2 weeks of culture
